{
  "source": "patent US20220265619A1",
  "about": "“COMBINATION TREATMENT OF LIVER DISEASES USING FXR AGONISTS” (Novartis AG, priority 2019, published 2022)",
  "key": {"[1]": {"assay": "FLIGHT-FXR (NCT02855164) Part C interim analysis, tropifexor in fibrotic NASH", "assay_type": "in vivo, human", "conditions": "for Relative change in HFF (MRI-PDFF), LS mean (SE), baseline to Week 12: placebo −10.26 (4.21); for patients achieving relative HFF reduction by ≥30% (without imputation for missing values): week 12 (placebo 20%)", "from_the_text": "FLIGHT-FXR (NCT02855164) is a phase 2 randomized, double blind, placebo-controlled, 3-part, adaptive-design study to assess the safety, tolerability, and efficacy of several doses of tropifexor (LJN452) in patients with non-alcoholic steatohepatitis (NASH). • METHODS: In Part C, the effects of higher doses of tropifexor on biomarkers and histology will be evaluated over 48 weeks in patients with biopsy-proven NASH and fibrosis stages 2-3. In all, 152 patients (64% females) were randomized to receive placebo (N=51), tropifexor 140 μg (N=50) or tropifexor 200 μg (N=51) once daily. Pre-specified endpoints assessed at week 12 included overall safety and changes in alanine aminotransferase (ALT), hepatic fat fraction (HFF), gamma glutamyl transferase (GGT), and body weight. • RESULTS: Pre-specified endpoints were met for tropifexor at a dose of 200 μg."}, "[2]": {"assay": "Tropifexor in NASH patients, Parts A and B of study CLJN452A2202", "conditions": "60 and 90 μg"}},
  "data": [
    {"smiles": "O=C(O)c1cc(F)c2nc(N3C4CC[C@H]3CC(OCc3c(-c5ccccc5OC(F)(F)F)noc3C3CC3)C4)sc2c1", "note": "(stereo partly drawn) [tropifexor, 2-[(1R,3r,5S)-3-({5-cyclopropyl-3-[2-(trifluoromethoxy)phenyl]-1,2-oxazol-4-yl}methoxy)-8-azabicyclo[3.2.1]octan-8-yl]-4-fluoro-1,3-benzothiazole-6-carboxylic acid]", "values": [
      {"measurement": "Relative change in HFF (MRI-PDFF), LS mean (SE), baseline to Week 12", "setting": "[1]; 140 μg once daily, n = 49, P = 0.209", "result": "−16.99 (4.64) %"},
      {"measurement": "patients achieving relative HFF reduction by ≥30% (without imputation for missing values)", "setting": "[1]; 140 μg", "result": 32, "unit": "%"},
      {"measurement": "Relative change in HFF (MRI-PDFF), LS mean (SE), baseline to Week 12", "setting": "[1]; 200 μg once daily, n = 51, P < 0.001", "result": "−31.37 (4.30) %"},
      {"measurement": "patients achieving relative HFF reduction by ≥30% (without imputation for missing values)", "setting": "[1]; 200 μg", "result": 64, "unit": "%"},
      {"measurement": "efficacy based on biomarkers and safety at Week 12", "setting": "[2]", "result": "anti-inflammatory and anti-steatotic efficacy"}
    ]}
  ]
}
